Measurements reported in patent US12521444B2, “Anti-HER2 antibody-drug conjugates and uses thereof” (Fortvita Biologics Limited, priority 2021, dated 2026).

Key:
HER2 = assay: EC50 (nM)
Excerpt: Table printed on a drawing sheet, FIG. 10
Head of the field: EC50 (nM)
First copying reader's note: EC50 of binding to SK-BR-3 cells (MFI), as printed over the plot above the table.
Where the first naming reader finds the target: patent_title: Anti-HER2 antibody-drug conjugates and uses thereof

SK-BR-3 = assay: In vitro cytotoxicity assay (CCK-8) in SK-BR-3; format: cell-based, human; conditions: ADCs, 120 hours
Procedure: (§1) Dispensed 175 μL cell suspension in 96-well plate at 1500 cells per well and incubate for 24 hours in a humidified incubator (37° C., 5% CO2). […] Added 25 μL various concentrations of compound as a […] solution into the cell culture medium (Fetal bovine serum, Invitrogen) in the plate and incubated for 120 hours in the incubator. Thawed CCK-8 on the bench top or in a 37° C. water bath, added 10 μL of CCK-8 to each well of the incubated plate (be careful not introducing air bubbles into the wells since they would interfere with the O. D. reading) and then further incubated for 1-4 hours in the incubator. Measured the absorbance at 450 nm using a SpectraMax i3× Microplate Reader and calculated the cell inhibition rate. The IC50 curves were generated along with the IC50 values by using GraphPad Prism software.

MDA-MB-468 = assay: In vitro cytotoxicity assay (CCK-8) in MDA-MB-468; format: cell-based; conditions: ADCs, Her2 negative cell line, 120 hours
Procedure: as §1

JIMT-1 = format: cell-based, human; conditions: ADCs, moderate Her2 expression, trastuzumab-resistant, 120 hours
Procedure: as §1

| Substance | EC50 (HER2) [nM] | IC50 (SK-BR-3) [nM] | IC50 (MDA-MB-468) [nM] | IC50 (JIMT-1) [nM] |
| --- | --- | --- | --- | --- |
| Trastuzumab: humanized anti-HER2 monoclonal antibody; heavy chain SEQ ID NO: 1, light chain SEQ ID NO: 2 [listing 1 of 2 here] | 3.1 |  |  |  |
| DS-8201a: the ADC trastuzumab deruxtecan (Enhertu), included for comparison |  | 0.09 | > 1000 | 6500 |
| Trastuzumab: humanized anti-HER2 monoclonal antibody; heavy chain SEQ ID NO: 1, light chain SEQ ID NO: 2 [listing 2 of 2 here] |  | 0.56 |  |  |
